# Where “and” joins values, the source holds several entries; their conditions need not be identical. Equal entries are not always repeated.
# Columns and labels:
# [1] = Blend uniformity: HPLC assay of random blend samples; settings: 6 samples, Lactohale 200 carrier
# [2] = Particle size distribution by laser diffraction (micronization); settings: for Particle Size VMD / Particle Size X10 / Particle Size X50 / Particle Size X90: micronized material
# [3] = Aerodynamic particle size determination by Next Generation Impactor (NGI)
# [4] = Thermogravimetric analysis (TGA) of micronized and non-micronized material; settings: FIG. 1
# [5] = 50 μg TRN-157 blend with 10 mg Lactohale, Mean of NGI 1-3
# [6] = 50 μg TRN-157 blend with 10 mg Lactohale, single NGI run
# [7] = 50 μg TRN-157 blend with 20 mg Lactohale, Mean of NGI 1-3
# [8] = 50 μg TRN-157 blend with 20 mg Lactohale, single NGI run
# [9] = TRN-157/mometasone blend, Lactohale 200 carrier, Mean of NGI runs
# [10] = TRN-157/mometasone blend, Respitose SV003 carrier, Mean of NGI 1-6
smiles,measurement,setting,value
C[N+]1(C)C2CC[C@@H]1[C@@H](OC(=O)[C@](O)(c1ccccc1)C1CCCC1)C2.[Br-],TRN-157 Blend Assay % RSD (uniformity of blend),[1],3.8%
same,starting particle size X50,[2]; before micronization,12 μm
same,starting particle size X90,[2]; before micronization,40 μm
same,Particle Size VMD,[2]; Average of 3 replicates,2.12 μm
same,Particle Size X10,[2]; Average of 3 replicates,0.52 μm
same,Particle Size X50,[2]; Average of 3 replicates,1.93 μm
same,Particle Size X90,[2]; Average of 3 replicates,3.94 μm
same,Particle Size VMD,[2]; single replicate,2.18 μm and 2.07 μm and 2.11 μm
same,Particle Size X10,[2]; single replicate,0.51 μm and 0.52 μm (2×)
same,Particle Size X50,[2]; single replicate,1.97 μm and 1.89 μm and 1.92 μm
same,Particle Size X90,[2]; single replicate,4.08 μm and 3.82 μm and 3.93 μm
same,FPD,[3]; [5],12.96 µg
same,FPF,[3]; [5],34.5%
same,NGI Capsule,[3]; [5],2.295 µg
same,NGI Device,[3]; [5],10.940 µg
same,NGI Preseparator,[3]; [5],12.995 µg
same,NGI Stage 1,[3]; [5],2.184 µg
same,NGI Stage 2,[3]; [5],3.567 µg
same,NGI Stage 3,[3]; [5],4.342 µg
same,NGI Stage 4,[3]; [5],4.485 µg
same,NGI Stage 5,[3]; [5],1.594 µg
same,NGI Stage 6,[3]; [5],0.401 µg
same,NGI Stage 7,[3]; [5],0.060 µg
same,NGI Throat,[3]; [5],7.925 µg
same,FPD,[3]; [6],12.15 µg and 14.53 µg and 12.22 µg
same,FPF,[3]; [6],31.3% and 38.0% and 34.3%
same,NGI Capsule,[3]; [6],2.610 µg and 1.996 µg and 2.278 µg
same,NGI Preseparator,[3]; [6],12.225 µg and 13.200 µg and 13.560 µg
same,NGI Stage 1,[3]; [6],2.036 µg and 2.280 µg and 2.237 µg
same,NGI Stage 2,[3]; [6],3.764 µg and 3.412 µg and 3.525 µg
same,NGI Stage 3,[3]; [6],4.004 µg and 4.624 µg and 4.398 µg
same,NGI Stage 4,[3]; [6],3.924 µg and 5.344 µg and 4.186 µg
same,NGI Stage 5,[3]; [6],1.560 µg and 1.922 µg and 1.300 µg
same,NGI Throat,[3]; [6],10.840 µg and 6.810 µg and 6.125 µg
same,FPD,[3]; [7],9.7 µg
same,FPF,[3]; [7],26.0%
same,NGI Capsule,[3]; [7],1.436 µg
same,NGI Device,[3]; [7],10.694 µg
same,NGI Preseparator,[3]; [7],17.153 µg
same,NGI Stage 1,[3]; [7],2.459 µg
same,NGI Stage 2,[3]; [7],3.356 µg
same,NGI Stage 3,[3]; [7],2.977 µg
same,NGI Stage 4,[3]; [7],3.248 µg
same,NGI Stage 5,[3]; [7],1.138 µg
same,NGI Stage 6,[3]; [7],0.333 µg
same,NGI Stage 7,[3]; [7],0.040 µg
same,NGI Throat,[3]; [7],6.610 µg
same,FPD,[3]; [8],11.32 µg and 8.67 µg and 9.22 µg
same,FPF,[3]; [8],28.8% and 23.1% and 26.2%
same,NGI Device,[3]; [8],8.130 µg and 8.393 µg and 15.560 µg
same,NGI Preseparator,[3]; [8],17.820 µg and 17.339 µg and 16.300 µg
same,NGI Stage 1,[3]; [8],2.484 µg and 2.685 µg and 2.207 µg
same,NGI Stage 2,[3]; [8],3.433 µg and 3.372 µg and 3.263 µg
same,NGI Stage 3,[3]; [8],3.732 µg and 1.960 µg and 3.240 µg
same,NGI Stage 4,[3]; [8],3.588 µg and 3.291 µg and 2.865 µg
same,NGI Stage 5,[3]; [8],1.402 µg and 1.067 µg and 0.945 µg
same,NGI Throat,[3]; [8],6.280 µg and 7.436 µg and 6.115 µg
same,change of particle size distribution (NGI) on storage,[3]; 1 month at 25° C./60% RH and 40° C./75% RH,no significant change
same,FPD,[3]; [9],1.2 µg
same,FPF,[3]; [9],> 30% and 38.8%
same,NGI Capsule,[3]; [9],0.200 µg
same,NGI Device,[3]; [9],1.000 µg
same,NGI Preseparator,[3]; [9],1.000 µg
same,NGI Stage 1,[3]; [9],0.600 µg
same,NGI Stage 2,[3]; [9],0.400 µg
same,NGI Stage 3,[3]; [9],0.400 µg
same,NGI Stage 4,[3]; [9],0.400 µg
same,NGI Stage 5,[3]; [9],0.200 µg
same,NGI Stage 6,[3]; [9],0.000 µg
same,NGI Stage 7,[3]; [9],0.000 µg
same,NGI Throat,[3]; [9],0.700 µg
same,NGI Preseparator,"[3]; TRN-157/mometasone blend, Lactohale 200 carrier, single NGI run",0.902 µg and 1.003 µg and 1.180 µg
same,FPD,[3]; [10],0.9 µg
same,NGI Capsule,[3]; [10],0.146 µg
same,NGI Device,[3]; [10],0.431 µg
same,NGI Preseparator,[3]; [10],2.100 µg
same,NGI Stage 1,[3]; [10],0.141 µg
same,NGI Stage 2,[3]; [10],0.209 µg
same,NGI Stage 3,[3]; [10],0.289 µg
same,NGI Stage 4,[3]; [10],0.318 µg
same,NGI Stage 5,[3]; [10],0.125 µg
same,NGI Stage 6,[3]; [10],0.030 µg
same,NGI Stage 7,[3]; [10],0.005 µg
same,NGI Throat,[3]; [10],0.804 µg
same,FPD,"[3]; TRN-157/mometasone blend, Respitose SV003 carrier, single NGI run",1.0 µg and 0.8 µg and 0.9 µg
same,FPF,"[3]; TRN-157 used alone (lactose blend without mometasone), initial time points",35-40%
same,increase of aerodynamic particle size,"[3]; at 12 months, 25° C./60% RH",0.4 μm
same,aerodynamic particle size distribution,[3]; in the various blends,about 2.4 μm
same,"TGA pattern, micronized vs non-micronized material",[4],no change in the physical structure
